# From PubChem BioAssay AID504834 (National Center for Advancing Translational Sciences (NCATS), 2011)
# This is a selection; strong and weak results do not stand in their true shares. Some of these compounds have results that are not shown, active ones among them. Results filed as inconclusive are left out. Activity calls are given as the source filed them. The call rests on the fitted dose curve; in most records, active means well fitted inhibition curve with a large enough effect; inconclusive means small, poorly fitted or top-dose-only effect, or another doubt; inactive means no such curve, though single readings can be large or run the other way.
# Assay: Primary qHTS for delayed death inhibitors of the malarial parasite plastid, 96 hour incubation
# Conditions: P. falciparum luciferase reporter growth; series mostly up to 28.7 µM; activity change, negative = inhibition: at the top concentration
# On the % scale 0 is the no-effect control and ±100 the full control effect; potency means the concentration at half of the fitted maximal effect.
Compound,"activity change, negative = inhibition",Potency
C=CCN1CCN(CCOC(=O)C(O)(c2ccccc2)c2ccccc2)CC1,inactive: -25.7%,
CN1CCCC(OC(=O)C(O)(c2ccccc2)c2ccccc2)C1 (stereo not drawn),,active: 1900 nM
CC(C)N1C(=O)CC2(CCN(CCOC(=O)C(O)(c3ccccc3)c3ccccc3)CC2)C1=O,inactive: 71.9%,
